Source: article PMC10880909, “Correction: A high-throughput effector screen identifies a novel small molecule scaffold for inhibition of ten-eleven translocation dioxygenase 2” (RSC Medicinal Chemistry, 2024)

Target: hTET2 (Homo sapiens, UniProt Q6N021)
Assay: MALDI-based inhibition assay of hTET2
Settings: additional SAR / re-synthesis

**Q.** Which “hTET2 inhibition, result in words” value does the source give for `O=C(O)c1cc2ccccc2cn1` [Compound 20, isoquinoline-3-carboxylic acid] here?
**A.** Its value is “micromolar IC50 values”.
